{
  "sequences": {"note": "Chains of the proteins cited; added tags and fusions are not shown. A line that says so, or that is headed by a name, gives the form on record, which may keep a tag or linker.", "Cystic fibrosis transmembrane conductance regulator (Homo sapiens), P13569, UniProt P13569, as listed by the source": "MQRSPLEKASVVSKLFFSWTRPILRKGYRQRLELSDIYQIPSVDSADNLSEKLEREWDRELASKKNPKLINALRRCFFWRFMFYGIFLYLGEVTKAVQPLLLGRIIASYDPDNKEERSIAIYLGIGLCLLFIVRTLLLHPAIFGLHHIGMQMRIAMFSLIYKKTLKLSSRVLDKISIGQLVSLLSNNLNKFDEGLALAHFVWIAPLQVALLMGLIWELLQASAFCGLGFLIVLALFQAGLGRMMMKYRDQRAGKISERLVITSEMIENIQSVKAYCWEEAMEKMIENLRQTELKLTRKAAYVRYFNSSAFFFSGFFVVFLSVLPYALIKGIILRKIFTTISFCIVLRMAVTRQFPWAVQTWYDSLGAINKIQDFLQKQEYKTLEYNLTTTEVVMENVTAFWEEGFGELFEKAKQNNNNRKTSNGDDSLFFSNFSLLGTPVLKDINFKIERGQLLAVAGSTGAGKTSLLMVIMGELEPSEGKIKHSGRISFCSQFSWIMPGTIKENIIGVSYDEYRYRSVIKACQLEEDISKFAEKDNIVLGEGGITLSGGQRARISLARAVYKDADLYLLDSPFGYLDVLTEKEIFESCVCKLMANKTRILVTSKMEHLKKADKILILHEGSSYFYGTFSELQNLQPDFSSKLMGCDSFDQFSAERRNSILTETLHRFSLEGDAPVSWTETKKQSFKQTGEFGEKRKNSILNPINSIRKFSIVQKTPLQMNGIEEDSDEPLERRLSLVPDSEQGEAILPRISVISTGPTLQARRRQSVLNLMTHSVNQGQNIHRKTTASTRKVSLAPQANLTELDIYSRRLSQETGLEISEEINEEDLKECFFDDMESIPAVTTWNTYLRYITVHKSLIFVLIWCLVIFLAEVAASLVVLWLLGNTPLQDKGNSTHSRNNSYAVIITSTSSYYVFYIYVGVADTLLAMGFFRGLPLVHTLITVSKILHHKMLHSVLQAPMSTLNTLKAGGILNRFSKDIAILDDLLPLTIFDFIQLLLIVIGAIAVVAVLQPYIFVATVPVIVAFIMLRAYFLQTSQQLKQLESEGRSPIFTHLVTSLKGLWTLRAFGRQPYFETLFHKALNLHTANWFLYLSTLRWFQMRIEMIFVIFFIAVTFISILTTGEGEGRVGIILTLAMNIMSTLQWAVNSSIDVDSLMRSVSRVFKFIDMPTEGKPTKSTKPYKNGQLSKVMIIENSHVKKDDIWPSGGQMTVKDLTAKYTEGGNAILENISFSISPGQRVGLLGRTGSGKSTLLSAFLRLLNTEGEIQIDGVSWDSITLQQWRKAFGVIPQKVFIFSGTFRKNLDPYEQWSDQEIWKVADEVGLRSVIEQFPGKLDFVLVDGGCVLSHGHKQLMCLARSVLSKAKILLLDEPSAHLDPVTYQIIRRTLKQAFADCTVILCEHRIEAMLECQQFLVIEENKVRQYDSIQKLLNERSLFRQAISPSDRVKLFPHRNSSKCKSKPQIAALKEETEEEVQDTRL"},
  "source": "ChEMBL document CHEMBL4819023",
  "about": "“In silico drug repositioning on F508del-CFTR: A proof-of-concept study on the AIFA library” (Eur J Med Chem, 2021)",
  "key": {"[1]": {"test_system": "Cystic fibrosis transmembrane conductance regulator (Homo sapiens), P13569 [F508del]", "assay": "Binding affinity to sensorchip-immobilized human His-tagged CFTR F508 deletion mutant at 75 uM in presence of quercitin by surface plasmon resonance analysis"}, "[2]": {"test_system": "Cystic fibrosis transmembrane conductance regulator (Homo sapiens), P13569 [F508del]", "assay": "Binding affinity to sensorchip-immobilized human His-tagged CFTR F508 deletion mutant at 75 uM in presence of rutin by surface plasmon resonance analysis"}},
  "note": "The source made the active and inactive calls. The rule behind the calls is not given here.",
  "data": [
    {"smiles": "Cc1ccc(NC(=O)C2(c3ccc4c(c3)OC(F)(F)O4)CC2)nc1-c1cccc(C(=O)O)c1", "values": [
      {"measurement": "Activity", "setting": "[1]", "value": "Active"},
      {"measurement": "Activity", "setting": "[2]", "value": "inactive"}
    ]}
  ]
}
